The target of assay [1] is HER3 His tag (UniProt P21860). Description: ELISA. The following applies: bispecific antibody. (In general: In an ELISA, binding on a coated surface is turned into a signal by an enzyme label.)
Assay [2] addresses HER3 tag free antigen (immobilized) (UniProt P21860). Description: ELISA; dual-binding sandwich: immobilized HER3-Fc + EGFR-His. The note with it: bispecific antibody.
In assay [3] the target is HER3 His tag (UniProt P21860). Description: direct ELISA, His-tagged antigen coated, anti-human Fc-HRP detection.

One may read the EC50 as the midpoint of the concentration-response curve. Turning to Patri-Cetu-Fc, the concentration for a half-maximal effect (EC50) amounted to 0.0197 nM with HER3 His tag [1] and 2 nM in assay [2].
For the substance “Patri-Cetu-Fc (bispecific antibody; other documents disagree on this pair)”, the EC50 in the assay with HER3 His tag [3] came to 0.19 nM.

The values are drawn from patent US20250282892A1.
